In ChEMBL document CHEMBL4834397 (J Med Chem, 2021):

Columns and labels:
[1] = target: T1, Leukotriene A-4 hydrolase (Homo sapiens, UniProt P09960); assay: Inhibition of LTA4H in human PBMC assessed as reduction of calcium ionophore A23187-stimulated LTB4 generation preincubated for 4 hrs followed by ionophore stimulation and measured after 2 hrs by EIA assay; type: tissue-based
T1 sequence (P09960 whole entry): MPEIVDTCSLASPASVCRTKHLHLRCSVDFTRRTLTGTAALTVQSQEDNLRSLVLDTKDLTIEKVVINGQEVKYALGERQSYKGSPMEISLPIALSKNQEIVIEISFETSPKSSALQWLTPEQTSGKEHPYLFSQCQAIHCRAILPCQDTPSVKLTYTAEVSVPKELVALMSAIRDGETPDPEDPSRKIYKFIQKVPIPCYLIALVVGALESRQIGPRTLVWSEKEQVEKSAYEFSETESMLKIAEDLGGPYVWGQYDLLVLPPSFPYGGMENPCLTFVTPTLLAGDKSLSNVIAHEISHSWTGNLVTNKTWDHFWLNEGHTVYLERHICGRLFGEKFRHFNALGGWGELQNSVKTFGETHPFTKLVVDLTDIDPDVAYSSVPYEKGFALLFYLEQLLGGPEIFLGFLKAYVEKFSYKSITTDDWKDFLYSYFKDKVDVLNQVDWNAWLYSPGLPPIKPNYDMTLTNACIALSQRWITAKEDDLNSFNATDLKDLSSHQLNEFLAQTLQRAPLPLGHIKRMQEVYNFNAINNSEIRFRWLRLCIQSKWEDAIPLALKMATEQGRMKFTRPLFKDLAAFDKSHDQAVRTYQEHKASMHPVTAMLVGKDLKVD

[2] = target: T1, Leukotriene A-4 hydrolase; assay: Inhibition of LTA4H in human whole blood assessed as reduction of calcium ionophore A23187-stimulated LTB4 generation preincubated for 4 hrs followed by ionophore stimulation and measured after 15 hrs by EIA assay; type: tissue-based
[3] = target: T1, Leukotriene A-4 hydrolase; assay: Inhibition of recombinant full length N-terminal His6-tagged LTA4H (unknown origin) expressed in Escherichia coli BL21 DE3 cells at enzyme concentration <1 nM using Arg-AMC as substrate preincubated for 15 mins followed by substrate addition and measured every 10 mins for 300 mins by fluorescence based assay

`O=C(O)CCCN1CCC[C@H]1COc1ccc(Oc2ccc(Cl)cc2)cc1` was tested, and the IC50 [1] was 74 nM, the IC50 [2] was 510 nM and the IC50 [3] was 54 nM.
